From patent US4022791A (priority 1975, dated 1977)

Columns and labels:
Conditions in all cases: 100 mg./kg. IP
mice [1] = test: Tail Flick Test; assay type: in vivo, mouse
mice [2] = test: Mouse Tail Pinch; assay type: in vivo
mice [3] = test: Hot Plate Test; assay type: in vivo, mouse

COc1ccc(Cl)c2c1CCC(CN1CCC3(CC1)C(=O)N(C)CN3c1ccccc1)=C2
Tail Flick .5 hr (percentage of analgesia response) (mice [1]; 0.5 hour after administration): 0%
Tail Flick 2 hr (percentage of analgesia response) (mice [1]; 2.0 hours after administration): 0%
Tail Pinch .5 hr (percentage of mice showing analgesia) (mice [2]; 0.5 hour after administration): 0%
Tail Pinch 2 hr (percentage of mice showing analgesia) (mice [2]; 2.0 hours after administration): 0%
Hot Plate .5 hr (percentage of mice showing analgesia) (mice [3]; 0.5 hour after administration): 20%
Hot Plate 2 hr (percentage of mice showing analgesia) (mice [3]; 2.0 hours after administration): 0%
